## Binding of CDR-mutated scFvs to a peptide of the spike HR2 region

The measurements come from Engelhart et al. 2022 (doi:10.1038/s41597-022-01779-4) through the FLAb antibody collection.

Binding partner: SARS-CoV-2 spike HR2 peptide, sequence PDVDLGDISGINAS.

Ab-14 is the parent antibody, in scFv form: VH, then a 15-residue (Gly4Ser)3 linker, then VL. The heavy chain is unchanged in all variants.
VH: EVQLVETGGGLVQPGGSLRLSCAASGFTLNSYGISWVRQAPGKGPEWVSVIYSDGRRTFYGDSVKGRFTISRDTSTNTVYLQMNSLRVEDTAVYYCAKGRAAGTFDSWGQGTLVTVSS
VL: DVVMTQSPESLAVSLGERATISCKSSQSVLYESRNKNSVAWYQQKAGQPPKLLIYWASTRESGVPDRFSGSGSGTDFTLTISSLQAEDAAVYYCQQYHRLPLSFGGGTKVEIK

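The parent was found by panning a naive human phage display library on the peptide. AAYL50 was designed without a model: most single CDR substitutions and a random sample of double and triple ones. Affinity was read by AlphaSeq, a pooled yeast mating assay with surface-displayed partners. After mating in shaken culture at 30 °C for 16 h, diploids were selected and their barcode pairs sequenced. Scores were corrected for input abundance and mapped to Kd with protein pairs of known affinity run in the same pool. There are three technical replicates.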

Variants are written as CDR1, CDR2 and CDR3 of the light chain (limits as in the source). Parent: KSSQSVLYESRNKNSVA, WASTRES, QQYHRLPLS. All variants listed here change Q27 of the VL, counted from its first residue. Numbers give log10(Kd / nM), so 0 is 1 nM and 3 is 1 µM. Smaller is tighter. A mean of the replicates is given; it leaves out those without a signal. A pair that was not seen in any replicate is written "not detected"; this usually means weak binding, but a binder can also be missed. Three control strains display no target. For library AAYL50, 18% of the pairings with them gave a signal, with a median of 4.19 and one signal in twenty below 2.99, so weak values seen in few replicates may be background.

| CDR-L1 | CDR-L2 | CDR-L3 | mean log10 Kd (nM) | replicates with signal |
|---|---|---|---|---|
| KSSYSVLYESVNKNSEA | WASTRES | QQYHRLPLS | not detected | 0/3 |
| KSSHSVLYESRNKNSVW | WASTYES | QQYHRLPLS | 4.93 | 1/3 |
| KHSNSVLYESRNKNSVA | WASTRES | QQYHRLWLS | 1.10 | 3/3 |
| KSSLSVLYESRNKNSVA | WASTRMS | QQYHRLPLS | 0.80 | 3/3 |
| KSSMSVLYESRNKNSVA | WASTRHS | QQYHRLPLS | 1.13 | 3/3 |
| KSSWQVLYESRNKNSVA | WASTRNS | QQYHRLPLS | 4.30 | 1/3 |
| KSSISVLYESRNKYSVA | WASTRHS | QQYHRLPLS | 1.39 | 3/3 |
| KSYKQVLYESRNKNSVA | WASTRES | QQYHRLPLS | 3.22 | 2/3 |
| KSSSSVLYESNNKNSIA | WASTRES | QQYHRLPLS | 0.56 | 3/3 |
| KSSPSVLYESRNKNSVW | WASTRES | QQYHRLPLS | 0.44 | 3/3 |
| KSSMSNLYESRNKNSVA | QASTRES | QQYHRLPLS | 0.78 | 3/3 |
| KSDISVLYESRGKNSVA | WASTRES | QQYHRLPLS | 3.41 | 2/3 |
| KWSPSVLYESRNKASVA | WASTRES | QQYHRLPLS | 1.02 | 3/3 |
| KSSASVLYESRNKNSVA | WASTRES | QQYHRLPLL | 1.85 | 3/3 |
| KSGKSVLYESRNKNSVI | WASTRES | QQYHRLPLS | not detected | 0/3 |
| KSSNSVLYESRNKNAVA | WASTRES | QQYHRSPLS | 2.35 | 1/3 |
| KSSLSVLYHSRNKCSVA | WASTRES | QQYHRLPLS | 2.78 | 3/3 |
| KSSESVLYESRNKNSVA | WASTRVS | QQYHRLPLH | 1.23 | 3/3 |
| KSSDSVLYESRNKNSVA | WASTRES | QPYHRLPLS | not detected | 0/3 |
| KSSYSVLYESRNKNSVA | PAWTRES | QQYHRLPLS | 5.38 | 1/3 |
| KSSDSVLYESRNKNSVA | WASTRWS | QQYHRLPYS | 2.57 | 3/3 |
| KSSTSVLYESRNKNSVA | WASTRES | QQCHRLHLS | not detected | 0/3 |
| KSSTSVLYESRNKNSVD | WASTRES | QQYHCLPLS | not detected | 0/3 |
| KSSVSVLYESRNKNSVA | WASTFES | QVYHRLPLS | 4.83 | 1/3 |
| KSSISMLYESRNKFSVA | WASTRES | QQYHRLPLS | 1.21 | 3/3 |
| KSSASVLYESRNKQSVA | WASTRES | QQYHRLPPS | not detected | 0/3 |
| KSSKSVLYESRNKNSVA | SASTREG | QQYHRLPLS | 2.65 | 3/3 |
| KSSGSVLYESRRKNSVA | WASTAES | QQYHRLPLS | 4.19 | 1/3 |
| KQSWSVGYESRNKNSVA | WASTRES | QQYHRLPLS | 0.37 | 3/3 |
| KSSISVLYESRNKNSFA | WASTRES | QQYHRLRLS | not detected | 0/3 |
| KSSPSVLYESRQKNSVA | WASTAES | QQYHRLPLS | 3.13 | 2/3 |
| KSIRSVLYEWRNKNSVA | WASTRES | QQYHRLPLS | 3.77 | 1/3 |
| KSSFSSLYESRNKNSVA | WASTRES | QQYHRLDLS | not detected | 0/3 |
| KSSCSVLYESRNKNSVA | WASARES | QQYHRLPLS | 2.35 | 3/3 |
| KSSISVLYESRNKNCVA | WASTRES | QQYHRLPFS | 3.91 | 3/3 |
| KSSLSVLYESRNKNSVA | WASNRES | HQYHRLPLS | 6.22 | 1/3 |
| KSPYSVLYESRGKNSVA | WASTRES | QQYHRLPLS | 1.36 | 3/3 |
| KSSCSEEYESRNKNSVA | WASTRES | QQYHRLPLS | not detected | 0/3 |
| KSSWSVLYPSRNKNSVE | WASTRES | QQYHRLPLS | not detected | 0/3 |
| KSSNSVRYESRNKNSVA | WASTRSS | QQYHRLPLS | 2.50 | 3/3 |
| KSSISYLYESRNKHSVA | WASTRES | QQYHRLPLS | 2.12 | 3/3 |
| KSSYSVLYESRNKNSVA | WASTRES | QQYHYLLLS | 0.88 | 3/3 |
| KRSASVLYESRNKNSVA | WADTRES | QQYHRLPLS | 3.09 | 3/3 |
| KSSYSYLYESRNKNSVA | WASTREI | QQYHRLPLS | 0.96 | 3/3 |
| KSSMSVLYESRNKNSVA | WASIRES | QKYHRLPLS | not detected | 0/3 |
| KSSRSVCYESRNKNQVA | WASTRES | QQYHRLPLS | 3.03 | 3/3 |
| KSSCSVLYESSNKNSTA | WASTRES | QQYHRLPLS | 4.06 | 1/3 |
| KSSGSVLYPSRNKNSVA | WASTRES | QQSHRLPLS | 0.90 | 3/3 |
| KSSHSVLYESRNKNSVA | WASTRES | HQYHRLPLS | not detected | 0/3 |
| KSSCSVLYESMNKNSVA | WASTRES | QQYIRLPLS | 1.02 | 3/3 |
| KSSRSCLYESRNKNSVA | WASTRES | QQYHRLPLS | 2.12 | 3/3 |
| KSSDSVLYESRNKNSVA | NASTRES | QQYHRLPDS | 6.39 | 1/3 |
| KSSMSVLWESRNKNSVA | WASTRES | QQYHRLQLS | 4.67 | 3/3 |
| KSSWSVLYESRNKNSEA | WASTHES | QQYHRLPLS | not detected | 0/3 |
| KSSMSVLYEDRNKNRVA | WASTRES | QQYHRLPLS | 1.34 | 3/3 |
| KSSWSVLYESRNKNSVA | WASTRES | QQYHRFPLS | not detected | 0/3 |
| KSSVSVLYESREKNSVA | WASTRES | QTYHRLPLS | 3.07 | 3/3 |
| KSSDSVLYMSRNKNSVA | WASTRES | QQAHRLPLS | 3.63 | 3/3 |
| KSSFSVLYESRNKNSVA | WASTRES | GQYFRLPLS | 4.36 | 2/3 |
| KSPYSVLYESRNKNSVA | WASLRES | QQYHRLPLS | 1.39 | 3/3 |
| KSSPSVLYESINKNSMA | WASTRES | QQYHRLPLS | 1.61 | 3/3 |

The 9 strongest on average among those seen in every replicate, once more:

{"CDR-L1": "KQSWSVGYESRNKNSVA", "CDR-L2": "WASTRES", "CDR-L3": "QQYHRLPLS", "mean log10 Kd (nM)": "0.37", "replicates with signal": "3/3"}
{"CDR-L1": "KSSPSVLYESRNKNSVW", "CDR-L2": "WASTRES", "CDR-L3": "QQYHRLPLS", "mean log10 Kd (nM)": "0.44", "replicates with signal": "3/3"}
{"CDR-L1": "KSSSSVLYESNNKNSIA", "CDR-L2": "WASTRES", "CDR-L3": "QQYHRLPLS", "mean log10 Kd (nM)": "0.56", "replicates with signal": "3/3"}
{"CDR-L1": "KSSMSNLYESRNKNSVA", "CDR-L2": "QASTRES", "CDR-L3": "QQYHRLPLS", "mean log10 Kd (nM)": "0.78", "replicates with signal": "3/3"}
{"CDR-L1": "KSSLSVLYESRNKNSVA", "CDR-L2": "WASTRMS", "CDR-L3": "QQYHRLPLS", "mean log10 Kd (nM)": "0.80", "replicates with signal": "3/3"}
{"CDR-L1": "KSSYSVLYESRNKNSVA", "CDR-L2": "WASTRES", "CDR-L3": "QQYHYLLLS", "mean log10 Kd (nM)": "0.88", "replicates with signal": "3/3"}
{"CDR-L1": "KSSGSVLYPSRNKNSVA", "CDR-L2": "WASTRES", "CDR-L3": "QQSHRLPLS", "mean log10 Kd (nM)": "0.90", "replicates with signal": "3/3"}
{"CDR-L1": "KSSYSYLYESRNKNSVA", "CDR-L2": "WASTREI", "CDR-L3": "QQYHRLPLS", "mean log10 Kd (nM)": "0.96", "replicates with signal": "3/3"}
{"CDR-L1": "KSSCSVLYESMNKNSVA", "CDR-L2": "WASTRES", "CDR-L3": "QQYIRLPLS", "mean log10 Kd (nM)": "1.02", "replicates with signal": "3/3"}